# Results reported in PMC11121837, “Impact of Nitric Oxide-Release Kinetics on Antifungal Activity” (Journal of Fungi, 2024).
# Where “and” joins values, the source holds several entries; their conditions need not be identical. Equal entries are not always repeated.
# Experiments:
# [1] = Characterization of NO release (chemiluminescence nitric oxide analyzer); format: physicochemical; conditions: phosphate-buffered saline 10 mM, pH 7.4, 37 °C
# [2] = tested on: MatTek EpiAirway tissue (AIR-100); experiment: Tissue viability assay (MTT); format: cell-based, human; conditions: AIR-100 EpiAirway tissues, 24 h apical treatment with 20 µL
structure (smiles),measurement,setting,value
[O-]/[N+](=N\O)C(/[N+]([O-])=N/O)/[N+]([O-])=N/O,"[NO]max, maximum instantaneous NO concentration",[1],2800 ± 170 ppb mg^−1
same,"[NO]t, total NO released over full duration",[1],5.0 ± 0.7 µmol/mg
same,"t1/2, half-life of NO release",[1],~ 3 h and 3.6 ± 0.8 h
same,"td, duration of NO release",[1],42.8 ± 12.5 h
same,IC50 (concentration needed to inhibit tissue viability by 50%),[2],"16,000 ± 1,000 µg mL-1"
